SMILES strings stand for the structures. The entries are a selection whose mix differs from that of the whole data set.

Results on 2 molecules are retold here after the supplement of paper PMC12669032.

In the experiment the test system is Akkermansia muciniphila. The experiment is described as follows: growth AUC relative to DMSO control (median of replicates) (fraction); higher = more growth (less inhibition), active = hit call of the paper. Conditions: 20 µM; 24 h;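 active = AUC reduced over 20% with Padj below 0.05 in at least 2 of 3 replicates; inactive = otherwise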. The method, then:
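Anaerobic monocultures of 22 human gut bacterial strains grown at 37 °C in mGAM with 20 µM compound (1% DMSO), starting OD600 0.05. OD600 read hourly for 24 h. Value is the median of 3 biological replicates. Hit: >20% AUC reduction and Padj<0.05 in at least 2 of 3 replicates.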
As to `CCOP(=S)(OCC)Oc1ncn(-c2ccccc2)n1`, the “growth AUC” value is inactive: 1.14. Take `CCOc1nc(C(Cl)(Cl)Cl)ns1`: the “growth AUC” value is inactive: 0.92.
